# Results taken from patent publication US7029870B1 (priority 1997, dated 2006).
# Columns and labels:
# GABAA receptor ε-subunit = biological target: T1, GABAA receptor ε-subunit (Homo sapiens, UniProt P78334, S102A); conditions: 100 μM; cells transfected with only ε-subunit cDNA
# T1 sequence (P78334 23-506 S102A): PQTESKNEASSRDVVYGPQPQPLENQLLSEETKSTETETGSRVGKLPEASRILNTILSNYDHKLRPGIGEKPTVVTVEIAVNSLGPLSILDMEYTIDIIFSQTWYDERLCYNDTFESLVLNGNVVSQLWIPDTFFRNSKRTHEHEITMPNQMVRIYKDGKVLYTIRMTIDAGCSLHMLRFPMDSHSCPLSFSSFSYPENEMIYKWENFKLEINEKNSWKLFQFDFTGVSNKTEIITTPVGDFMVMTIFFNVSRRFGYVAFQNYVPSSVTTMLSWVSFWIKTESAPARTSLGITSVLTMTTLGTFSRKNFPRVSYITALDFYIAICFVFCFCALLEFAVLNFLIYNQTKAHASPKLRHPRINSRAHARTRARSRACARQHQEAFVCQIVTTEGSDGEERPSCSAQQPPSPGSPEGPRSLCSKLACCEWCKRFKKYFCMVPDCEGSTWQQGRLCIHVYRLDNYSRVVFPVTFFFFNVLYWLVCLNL
# α2/β1 GABAA receptors = biological target: T2, α2/β1 GABAA receptors (Homo sapiens, UniProt P18505+P47869); conditions: 100 μM GABA, α2/β1, exponential fit
# T2 sequence (P47869 29-451): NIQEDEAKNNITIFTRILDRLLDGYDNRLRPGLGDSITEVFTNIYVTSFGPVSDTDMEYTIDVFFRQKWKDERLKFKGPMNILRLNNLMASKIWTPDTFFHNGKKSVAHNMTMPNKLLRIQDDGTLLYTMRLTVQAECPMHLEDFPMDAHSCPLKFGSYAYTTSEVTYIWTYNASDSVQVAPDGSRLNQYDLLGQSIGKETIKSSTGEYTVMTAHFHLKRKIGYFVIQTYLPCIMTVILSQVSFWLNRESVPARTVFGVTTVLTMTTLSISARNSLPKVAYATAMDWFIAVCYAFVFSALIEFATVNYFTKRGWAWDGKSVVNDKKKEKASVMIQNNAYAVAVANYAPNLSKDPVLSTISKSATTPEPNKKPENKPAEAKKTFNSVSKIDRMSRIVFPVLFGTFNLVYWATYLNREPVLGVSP
# T2 sequence (P18505 26-474): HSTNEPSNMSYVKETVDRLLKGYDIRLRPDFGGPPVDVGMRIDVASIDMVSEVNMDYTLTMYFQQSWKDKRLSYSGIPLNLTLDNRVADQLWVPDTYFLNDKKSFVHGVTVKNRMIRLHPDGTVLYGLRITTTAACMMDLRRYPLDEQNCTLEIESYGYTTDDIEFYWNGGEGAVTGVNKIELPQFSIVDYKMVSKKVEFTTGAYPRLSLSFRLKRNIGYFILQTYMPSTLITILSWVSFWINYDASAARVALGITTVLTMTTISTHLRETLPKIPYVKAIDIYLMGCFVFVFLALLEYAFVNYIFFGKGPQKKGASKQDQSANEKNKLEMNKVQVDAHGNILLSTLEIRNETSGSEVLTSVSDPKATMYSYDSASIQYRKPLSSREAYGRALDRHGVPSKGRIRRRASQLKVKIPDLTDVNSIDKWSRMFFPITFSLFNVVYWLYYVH
Chloride currents in response to agonist (GABAA receptor ε-subunit),Reversal potential of GABA-evoked currents (α2/β1 GABAA receptors) [mV],SMILES
failed to exhibit chloride currents,4.4,"NCCCC(=O)O [GABA, γ-aminobutyric acid]"
failed to exhibit chloride currents,,NCC(=O)O [glycine]
